The test system of assay [1] is STAT6 (JAK1/3) reporter in RA-1 cells. As to conditions: individual values.
For assay [2] the test system is unchanged. Put plainly: cells.

Molecules are shown by their SMILES. Where two headings read alike, the source gives them in different places.

Turning to `CS(=O)(=O)N1CCN(c2ccc(Nc3ncc(C(N)=O)c(NC4CC4)n3)cc2)CC1` [compound 5], the IC50 in assay [1] came to 59 nM; in assay [2] (read-out: Activity in reference cell based assay (IC50, μM) (95% CI) STAT6 (JAK1/3) reporter in RA-1 cells, geometric mean) it was 0.063 µM; in assay [2] (read-out: Cellular activity (IC50, mM) STAT6 reporter in RA-1 cells, individual values) it was 0.069 µM.

Source of the values: PMC5761851, “Application of a phenotypic drug discovery strategy to identify biological and chemical starting points for inhibition of TSLP production in lung epithelial cells” (PLoS ONE, 2018).
